Laboratory results published in article PMC8129907, “Vancomycin bone and tissue concentrations following tibial intraosseous administration – evaluated in a porcine model” (Journal of Bone and Joint Infection, 2021).

Details: pig, 500 mg intraosseous, no tourniquet, microdialysis, mean (SD), n = 8

Compound: CN[C@H](CC(C)C)C(=O)N[C@H]1C(=O)N[C@@H](CC(N)=O)C(=O)N[C@H]2C(=O)N[C@H]3C(=O)N[C@H](C(=O)N[C@H](C(=O)O)c4cc(O)cc(O)c4-c4cc3ccc4O)[C@H](O)c3ccc(c(Cl)c3)Oc3cc2cc(c3O[C@@H]2O[C@H](CO)[C@@H](O)[C@H](O)[C@H]2O[C@H]2C[C@](C)(N)[C@H](O)[C@H](C)O2)Oc2ccc(cc2Cl)[C@H]1O [vancomycin]
- Cmax (peak drug concentration) (intramedullary canal in the tibia): 8.2 (4) ^a µg/mL
- Cmax (peak drug concentration) (subcutaneous tissue): 7.7 (3) ^a µg/mL
- Cmax (peak drug concentration) (synovial fluid of the knee joint): 6.5 (4) ^a µg/mL
- Cmax (peak drug concentration) (tibial cortical bone): 1 (1) µg/mL

Where two headings read alike, the source gives them in different places. Marks after values point to notes of the source that are not given here.
